Only a part is listed here, and it is no random draw. Inconclusive results are not listed. Activity calls are given as the source filed them. Calls come from the whole dose curve.

The values below come from PubChem BioAssay (Tox21).
% is set by controls: 0 for no effect and ±100 for the full control effect; potency is the fitted concentration of half-maximal effect.

This assay can be described thus: Nuclear factor erythroid 2-related factor 2/antioxidant responsive element (Nrf2/ARE) small molecule agonists: luciferase reporter gene qHTS assay in human keratinocytes (AID 1919969). Note: nearly all actives have a fitted effect of over 35% in size. The conditions noted are these: KeratinoSens HaCaT ARE-luciferase, luminescence, 24 h; series mostly up to 92.4 µM; activity, positive = activation: at the top concentration. The text has this:
National Center for Advancing Translational Sciences [NCATS]
Division of Preclinical Innovation [DPI]
U.S. Environmental Protection Agency [EPA]
National Institutes of Environmental Health Sciences [NIEHS]
National Toxicology Program [NTP]
U.S. Food and Drug Administration [FDA]
Oxidative stress has been implicated in the pathogenesis of a variety of diseases ranging from cancer to neurodegeneration. The antioxidant response element (ARE) signaling pathway plays an important role in the amelioration of oxidative stress. The KeratinoSens (Givaudan, Switzerland) is an in vitro test method which quantifies luciferase induction as a measure of activation of Keap1-Nrf2-antioxidationt/electrophile response element (ARE) dependant pathway in HaCaT human keratinocytes stably transfected with a selectable plasmid. The KeratinoSens assay is a cell-based assay with a reporter cell line to detect potential skin sensitizers by their ability to induce the Nrf2/ARE-response. The activation of the report gene under culture conditions can be detected by ONE-Glo Luciferase Assay System (Promega, Madison, WI). This cell line has been used to screen the Tox21 10K compound library to identify agonists that induce oxidative stress. The cytotoxicity of the Tox21 compound library against the KS-ARE cell line was tested in parallel by measuring the cell viability using CellTiter- Fluor assay system (Promega, Madison, WI) in the same wells.
HaCaT derived cell line KeratinoSens were dispensed at 1,500 cells/5uL/well in 1536-well white wall/solid bottom plates using a Multidrop Combi (ThermoFisher Scientific, Waltham, MA) dispenser. After the assay plates were incubated at 37 C/5% CO2 for 5 h, 23 nL of compounds dissolved in DMSO, positive controls or DMSO only was transferred to the assay plate by a pintool workstation (Kalypsys, San Diego, CA). The plates were incubated at 37 C/5% CO2 for 23 h, followed by addition of 1uL/well of CellTiter-Fluor reagent into the assay plates using a Flying Reagent Dispenser (Aurora Discovery, San Diego, CA) for cell viability readout that measures cytotoxicity. After 1 h incubation at 37 C/5% CO2 the fluorescence intensity was measured using a ViewLux (PerkinElmer, Shelton, CT) plate reader. Then 4uL/well of One-Glo were added using a Flying Reagent Dispenser. After the plates were incubated at room temperature for 30 min, the luminescence intensity in the assay plates was measured using ViewLux plate reader.
For orientation: Reporter assays use an easily measured gene product as a stand-in for the process of interest.
As to `N=C(N)N[N+](=O)[O-]`, the “activity, positive = activation” value was inactive: -0.199%.

Take `O=[N+]([O-])[O-].[NH4+]`: the Potency entry was “inactive”. Regarding `COP(C)(=O)OC`, the Potency result was “inactive”. On to `CCOP(=O)(CC)OCC`, for which the “activity, positive = activation” value is inactive: 1.51%. On the same count and under the same terms, for `C/C1=C2N=C(/C=C3N=C(/C(C)=C4\[N-][C@@](C)([C@@H]5N=C1[C@](C)(CCC(=O)NC[C@@H](C)OP(=O)([O-])O[C@H]1[C@@H](O)[C@@H](n6cnc7cc(C)c(C)cc76)O[C@@H]1CO)[C@H]5CC(N)=O)[C@@](C)(CC(N)=O)[C@@H]4CCC(N)=O)[C@@](C)(CC(N)=O)[C@@H]\3CCC(N)=O)C(C)(C)[C@@H]/2CCC(N)=O.[C-]#N.[Co+3]` the value was inactive: -8.51% [at 42.5 µM]; for `Nc1cc([N+](=O)[O-])cc([N+](=O)[O-])c1O`, inactive: 5.69%; for `CCOP(=O)(CC)Oc1ccc([N+](=O)[O-])cc1` (centres undefined), inactive: 0.727% [at 42.5 µM].

Consider `O=[N+]([O-])c1cccc([N+](=O)[O-])c1`, for which the “activity, positive = activation” value was inactive: 10.2%. For `Cc1cccc([N+](=O)[O-])c1[N+](=O)[O-]`, the Potency was active: 8.15 µM. For the compound `CP(=O)(O)OCCC[Si](O)(O)O`, the “activity, positive = activation” value is inactive: -8.43%.

For the compound `N#CBr`, the “activity, positive = activation” value is inactive: 0.207%. As to `CCN(CC)CCCl`, the Potency is active: 55.3 µM. As to `O=[N+]([O-])OCC(CO[N+](=O)[O-])(CO[N+](=O)[O-])CO[N+](=O)[O-]`, the “activity, positive = activation” value is inactive: 6.1%. Take `Cc1ccc([N+](=O)[O-])cc1[N+](=O)[O-]`: the Potency result is “inactive”. Still for that read-out and setting: the entry for `Cc1c([N+](=O)[O-])cccc1[N+](=O)[O-]` is “inactive”; for `OCCSCCO` it is “inactive”. On to `[NH4+].[O-][Cl+3]([O-])([O-])[O-]`, for which the Potency result was “inactive”. Turning to `COc1ccc([N+](=O)[O-])cc1[N+](=O)[O-]`, the “activity, positive = activation” value is inactive: 0.718%.

`CC(C)N(CCO)C(C)C`: the “activity, positive = activation” value was inactive: -8.45%.
